For this experiment, the target named is PIK3CB (Human) (UniProt P42338).

The chains behind the UniProt entries cited, without tags or fusion partners. Where a name states a change or a piece, a line headed by the entry shows the natural chain unless it says otherwise.
UniProt P42338: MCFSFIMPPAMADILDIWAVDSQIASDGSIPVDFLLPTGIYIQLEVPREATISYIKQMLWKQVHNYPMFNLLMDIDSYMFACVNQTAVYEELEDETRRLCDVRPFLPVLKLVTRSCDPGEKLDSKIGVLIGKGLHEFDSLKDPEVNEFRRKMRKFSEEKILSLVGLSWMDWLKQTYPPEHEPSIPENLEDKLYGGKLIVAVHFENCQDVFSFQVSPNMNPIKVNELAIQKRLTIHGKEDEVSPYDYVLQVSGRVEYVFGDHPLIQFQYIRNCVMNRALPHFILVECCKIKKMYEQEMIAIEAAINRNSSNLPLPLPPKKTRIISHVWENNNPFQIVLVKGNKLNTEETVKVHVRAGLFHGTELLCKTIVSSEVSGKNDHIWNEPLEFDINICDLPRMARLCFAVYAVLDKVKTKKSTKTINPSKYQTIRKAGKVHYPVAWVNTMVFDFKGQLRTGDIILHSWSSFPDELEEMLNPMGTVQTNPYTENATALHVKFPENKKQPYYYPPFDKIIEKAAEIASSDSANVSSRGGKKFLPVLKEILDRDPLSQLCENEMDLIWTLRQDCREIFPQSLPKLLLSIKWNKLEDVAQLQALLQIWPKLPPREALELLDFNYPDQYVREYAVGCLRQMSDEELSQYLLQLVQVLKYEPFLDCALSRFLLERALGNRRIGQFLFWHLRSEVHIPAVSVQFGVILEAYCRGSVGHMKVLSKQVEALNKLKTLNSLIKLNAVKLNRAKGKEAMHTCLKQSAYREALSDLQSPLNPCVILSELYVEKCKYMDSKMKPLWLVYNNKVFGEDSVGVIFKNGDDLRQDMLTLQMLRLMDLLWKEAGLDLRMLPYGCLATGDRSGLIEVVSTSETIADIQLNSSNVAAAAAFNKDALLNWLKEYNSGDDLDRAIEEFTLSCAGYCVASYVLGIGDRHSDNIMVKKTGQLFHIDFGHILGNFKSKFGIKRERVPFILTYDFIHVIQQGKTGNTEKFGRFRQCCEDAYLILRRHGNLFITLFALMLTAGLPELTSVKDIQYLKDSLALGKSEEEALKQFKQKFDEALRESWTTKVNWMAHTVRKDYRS

`Nc1ncnc2[nH]nc(-c3ccc(Oc4ccccc4)cc3)c12` showed an IC50 above 50 µM.

In turn, `Nc1ncnc2[nH]nc(-c3cccc(Oc4ccccc4)c3)c12` showed an IC50 above 50 µM.

In general, IC50 refers to the concentration that gives 50% inhibition. High values mean weaker potency, low ones greater potency.

The values above are taken from the Kinase Knowledgebase extract (Sharma et al. 2016).
